ChEMBL document CHEMBL4819154, “Discovery of quinuclidine modulators of cellular progranulin” (Bioorg Med Chem Lett, 2021)

Test: Increase of PGRN level in mouse microglial BV-2 cell relative to control
Assay type: functional

Question: With `O=C(OC1CN2CCC1CC2)C(=O)N1CCc2ccccc2[C@@H]1c1ccc(F)cc1` (stereo partly specified) as the molecule, how does the EC50 read?
Answer: The EC50 was greater than 10 µM.
